This note sets out measurements from US20050282181A1 (published 2005).

The target of assay [1] is T1, human IL-1RI expressed on the cell surface (K299 cells; HeLa cells) (human, UniProt P14778 18-569).
T1 sequence (looked up): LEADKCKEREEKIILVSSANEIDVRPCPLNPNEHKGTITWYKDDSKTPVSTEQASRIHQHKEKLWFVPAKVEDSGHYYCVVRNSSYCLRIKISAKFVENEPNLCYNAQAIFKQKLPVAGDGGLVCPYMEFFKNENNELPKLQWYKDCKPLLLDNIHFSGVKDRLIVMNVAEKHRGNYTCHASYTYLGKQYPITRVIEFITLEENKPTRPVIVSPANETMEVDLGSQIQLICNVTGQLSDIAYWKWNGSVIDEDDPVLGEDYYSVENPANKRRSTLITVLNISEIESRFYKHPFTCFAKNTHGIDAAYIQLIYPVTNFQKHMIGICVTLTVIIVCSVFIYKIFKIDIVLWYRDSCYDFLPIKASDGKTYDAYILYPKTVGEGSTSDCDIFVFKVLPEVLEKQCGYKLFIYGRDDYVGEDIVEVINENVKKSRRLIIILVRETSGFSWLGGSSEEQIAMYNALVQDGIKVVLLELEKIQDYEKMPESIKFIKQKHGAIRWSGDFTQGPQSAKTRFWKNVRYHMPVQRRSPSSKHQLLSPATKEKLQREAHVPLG
As to the kind of experiment: cell-based or functional assay.

Assay [2] concerns the target T2, biotinylated soluble human IL-1RI ectodomain (human, UniProt P14778 18-336, biotinylated with EZ-Link Sulfo-NHS-SS-Biotin, approaching 2 mol biotin/mol receptor).
T2 construct: extracellular domain; also called biotinylated IL-1RI; biotinylated human IL-1RI
T2 sequence (looked up): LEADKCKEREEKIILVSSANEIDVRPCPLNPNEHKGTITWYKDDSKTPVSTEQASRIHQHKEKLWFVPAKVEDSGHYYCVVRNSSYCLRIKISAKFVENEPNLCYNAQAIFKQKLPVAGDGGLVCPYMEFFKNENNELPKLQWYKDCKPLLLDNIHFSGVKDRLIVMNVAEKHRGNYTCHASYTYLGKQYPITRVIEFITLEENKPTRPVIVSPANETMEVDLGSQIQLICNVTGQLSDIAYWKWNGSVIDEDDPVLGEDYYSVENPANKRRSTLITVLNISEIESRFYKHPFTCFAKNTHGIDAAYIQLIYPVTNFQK
As to the kind of experiment: competition binding assay, plate-immobilized biotinylated IL-1RI ectodomain, competitor Eu-labeled IL-1α.

The target of assay [3] is T2, biotinylated soluble human IL-1RI …. As to the kind of experiment: competition binding assay, plate-immobilized biotinylated IL-1RI ectodomain, competitor Eu-labeled IL-1β.

B1: IL-1ra (ligand, human, UniProt P18510 26-177, looked up)
chain: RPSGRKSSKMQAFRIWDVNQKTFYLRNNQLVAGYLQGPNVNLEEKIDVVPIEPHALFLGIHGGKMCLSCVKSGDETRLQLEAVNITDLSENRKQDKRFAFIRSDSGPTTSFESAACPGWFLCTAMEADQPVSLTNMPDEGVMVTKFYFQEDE
notes: also called soluble IL-1ra; naturally-occurring IL-1R antagonist
Broadly, the IC50 is the concentration needed to halve the response being measured. Higher therefore signals lower potency. With B1, in assay [1], the “IC50, inhibition of IL-1α-induced NF-κB nuclear translocation in HeLa cells” value is 0.4 nM and the “IC50, inhibition of IL-1β-induced NF-κB nuclear translocation in HeLa cells” value was 0.2 nM. This molecule also yielded an IC50 in assay [2] of 3.1 nM. For the same molecule, the half-maximal inhibitory concentration (IC50) in assay [3] was 2.5 nM.
